Laboratory results from patent US4740501A (priority 1985, dated 1988).

Legend:
L1210 leukemia cells = assay: PTT.119 induced resistance test, long-term low dose culture; settings: L1210-T1 at 37.5 nM for 25 passages
L1210/L-PAM leukemia = assay: L-PAM cross-resistance test: viability after pulse or 24 hour exposure; format: cell-based, mice
P388/L-PAM leukemia = assay: as above; format: cell-based, mice
MJY-alpha monolayers = assay: Tumor cell layer viability under viral harvest conditions; format: cell-based; settings: 15.0 uM; 48 hour
L1210 leukemia = assay: L-PAM cross-resistance test: viability after pulse or 24 hour exposure; format: cell-based, mice
[1] = test system: L1210/L-PAM leukemia cells; assay: Tumorigenicity of in vitro treated leukemia cells in BDF1 recipients; format: in vivo, BDF1 mice; settings: for MST: L1210/L-PAM, control 13
[2] = complete cytolysis at concentration similar to L1210
[3] = 3.75 uM, 30 or 60 min exposure, within 4 to 5 days
[4] = 7.5 uM, 30 or 60 min exposure, 6 to 7 days
[5] = read-out: T.C.D.50, treated 24 hours
[6] = treated 24 hours, cultures contained 0.2-3% viable cells at 24 hours

For CCOC(=O)[C@H](CCSC)NC(=O)[C@H](Cc1cccc(N(CCCl)CCCl)c1)NC(=O)[C@@H](N)Cc1ccc(F)cc1.Cl [PTT.119, 3-(p-fluorophenyl)-L-alanyl-3-[m-bis(2-chloroethyl)aminophenyl]-L-alanyl-L-methionine ethyl ester hydrochloride], the “induction of resistant L1210 cells” value (L1210 leukemia cells) was “no resistant L1210 cells have been induced”, the “cross-resistance to the tripeptide” value (L1210/L-PAM leukemia; [2]) was “lack of any detectable cross-resistance” and the “cross-resistance to the tripeptide” value (P388/L-PAM leukemia; [2]) was “lack of any detectable cross-resistance”.

With L-phenyl-alanine mustard the “Viability compared to control cultures (%)” value (MJY-alpha monolayers) was 96.9%, the “percentage of viable cells” value (L1210/L-PAM leukemia; [3]) was 80-90% and the “surviving fraction at end of examination period” value (from here on “surviving fraction at end”) (L1210/L-PAM leukemia; [4]) was 3-20%. The population remaining viable (L1210/L-PAM leukemia; 163 uM, 24 hours) was “approximately 0.2%”, the IC50 (L1210/L-PAM leukemia; [5]) was 3.8 µM and the T.C.D.100 (L1210/L-PAM leukemia; [6]) was 163.0 µM. For the same compound, the “percentage of viable cells” value (P388/L-PAM leukemia; [3]) was 80-90%, the “surviving fraction at end” value (P388/L-PAM leukemia; [4]) was 7-40% and the population remaining viable (P388/L-PAM leukemia; 163 uM, 24 hours) was 3%. For the same compound, the IC50 (P388/L-PAM leukemia; [5]) was 11 µM, the T.C.D.100 (P388/L-PAM leukemia; [6]) was 163.0 µM and the “elimination of viable population” value (L1210 leukemia; 15 uM, 30 or 60 minutes, within 5 days of treatment) was “could not eliminate all viable cells”. The “percentage of viable cells” value (L1210 leukemia; L1210, 3.75 uM, 30 or 60 min exposure, within 4 to 5 days) was 80-90%, the “surviving fraction at end” value (L1210 leukemia; L1210, 7.5 uM, 30 or 60 min exposure, 6 to 7 days) was 60-80% and the T.C.D.100 (L1210 leukemia; L1210, treated 24 hours, cultures contained 0.2-3% viable cells at 24 hours) was 75.0 µM. The IC50 (L1210 leukemia; read-out: T.C.D.50, L1210, treated 24 hours) was 22.5 µM, the “tumorigenicity of L1210/L-PAM cells” value ([1]; 15 uM for 60 min only) was “diminution of tumorigenicity” and the “MST” value ([1]; 7.5 uM, 30 min) was 15 days. For the same compound, the “MST” value ([1]; 7.5 uM, 60 min, TF = Tumor Free) was 15 days, the “MST” value ([1]; 15 uM, 15 min) was 14 days and the “MST” value ([1]; 15 uM, 30 min) was 16 days. For the same compound, the “outcome of mice receiving treated L1210/L-PAM cells” value ([1]; either dose (7.5 or 15 uM) for 15 or 30 min) was “died of tumor”.
